Key:
[1] = test system: C57B16 mice; conditions: cited from earlier work
[2] = test system: human TNFR-p55; assay: Solid phase radioligand competition binding assay, E. coli lysates, TNFR-p55; conditions: 10-fold serial dilutions 10^-2 to 10^-7, < = inhibition but below 50% at 1:100, << = no measurable inhibition at 1:100
Description: (§1) After 20 min incubation at room temperature 50 μl of 1M MgCl2, 20 μl of 5 mg/ml DNaseI, 50 μl of 5M NaCl and 50 μl of 10% NP-40 were added and the mixture was further incubated at room temperature for 15 min. 0.5 ml of the lysate clarified by centrifugation at 13'000 rpm for 5 min was subjected to ammonium sulfate precipitation (25%-70% cut). The 70% ammonium sulfat pellet was dissolved in 0.2 ml PBS and analyzed by sodium dodecyl sulfate polyacrylamide gel electrophoresis (SDS-PAGE) to confirm presence and approximate amount of the recombinant proteins.
TNFα was labelled by the Iodogen method (Pierce Chemical Company) to a specific activity of about 10-30 μCi/μg. The volume was 100 μl/well and each lysate dilution was assayed in duplicate or triplicate. After three hours at room temperature the wells were thoroughly washed with PBS and counted in a γ-counter. The results are given in Table 2 for lysates comprising the muteins indicated therein.

[3] = test system: human TNFR-p75; assay: Solid phase radioligand competition binding assay, E. coli lysates, TNFR-p75; conditions: 10-fold serial dilutions 10^-2 to 10^-7, < = inhibition but below 50% at 1:100, << = no measurable inhibition at 1:100
Description: as §1, with “10 ml suspensions of E. coli cells transformed and induced as described in Examples I and II were centrifuged at 4'000 rpm for 10 min and resuspended in 0.9 ml of lysis buffer (10 mM Tris-HCl pH 8.0, 5 mM EDTA, 2 mM PMSF, 10 mM benzamidine, 200 units/ml aprotinine and 0.1 mg/ml lysozyme). After” for “After”
96 well microtiter plates were coated with recombinant human […] TNFR-p75-hγ3 and TNFR-p55-hγ3 fusion proteins (extracellular portion of the receptor fused to the Fc part of human IgG3) at a concentration of 0.3 μg/ml and 0.1 μg/ml, respectively, in phosphate buffered saline (PBS, 100 μl/well, overnight at 4° C.) [Loetscher, H. et al. J. Biol. Chem. 266, 18324-18329 (1991); Lesslauer, W. et al. Eur. J. Immunol. 21, 2883-2886 (1991)]. […] After three hours at room temperature the wells were thoroughly washed with PBS and counted in a γ-counter. […]

wildtype: (wild-type) human TNF-α, 157 amino acids, SEQ ID:2 [reference compound]
LD50 [1]: ~500 μg/mouse
Dilution of E. coli Lysate for 50% Inhibition of 125I-TNFα Binding (ID50) TNFR-p55 [2]: 14,260 fold
Dilution of E. coli Lysate for 50% Inhibition of 125I-TNFα Binding (ID50) TNFR-p75 [3]: 14,140 fold

Source: US5597899A, “Tumor necrosis factor muteins” (Hoffmann-La Roche Inc., priority 1993, dated 1997)
